{"sequences": {"note": "Amino acid sequences for entries named in this document (tags omitted). A change or cut given only in a name is not applied to a line headed by its entry. Residues count along the entry.", "UniProt P63208, 2-163, chain 1 of 2": "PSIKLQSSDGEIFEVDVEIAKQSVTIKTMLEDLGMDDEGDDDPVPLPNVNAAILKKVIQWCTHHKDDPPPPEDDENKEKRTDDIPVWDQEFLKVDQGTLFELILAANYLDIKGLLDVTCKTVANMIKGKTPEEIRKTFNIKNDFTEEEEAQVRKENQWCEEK", "UniProt O14867": "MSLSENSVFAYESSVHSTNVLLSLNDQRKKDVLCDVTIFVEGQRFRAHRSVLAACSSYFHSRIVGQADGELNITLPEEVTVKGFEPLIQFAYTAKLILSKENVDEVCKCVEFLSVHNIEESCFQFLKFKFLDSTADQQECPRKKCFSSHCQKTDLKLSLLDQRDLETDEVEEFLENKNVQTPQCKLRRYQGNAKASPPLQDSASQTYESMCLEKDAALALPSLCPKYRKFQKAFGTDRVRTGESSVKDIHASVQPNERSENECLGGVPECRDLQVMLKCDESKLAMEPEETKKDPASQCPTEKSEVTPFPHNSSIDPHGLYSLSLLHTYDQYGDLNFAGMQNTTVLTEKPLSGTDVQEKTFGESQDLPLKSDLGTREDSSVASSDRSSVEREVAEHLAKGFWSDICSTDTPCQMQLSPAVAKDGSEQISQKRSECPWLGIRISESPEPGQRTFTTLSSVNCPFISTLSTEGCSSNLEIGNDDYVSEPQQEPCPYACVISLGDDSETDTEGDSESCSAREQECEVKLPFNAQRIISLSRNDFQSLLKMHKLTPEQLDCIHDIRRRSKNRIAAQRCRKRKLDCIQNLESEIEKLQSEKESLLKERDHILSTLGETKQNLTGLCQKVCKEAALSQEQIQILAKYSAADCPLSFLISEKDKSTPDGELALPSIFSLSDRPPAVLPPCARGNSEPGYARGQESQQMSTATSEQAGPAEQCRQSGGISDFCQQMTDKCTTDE"}, "source": "paper doi:10.1101/2024.06.03.596960", "about": "(bioRxiv, 2024)", "key": {"[1]": {"molecular_target": "biotinylated ^AviSKP1-FBXO22(12-403) (UniProt P63208)", "experiment": "BLI"}, "[2]": {"molecular_target": "biotinylated ^AviSKP1-FBXO22(12-403) (UniProt P63208)", "experiment": "SPR"}}, "data": [{"substance": "BACH1 BTB domain (residues 7-128), wild type, tag-free (from UniProt O14867 7-128) (domain or fragment)", "values": [{"measurement": "koff", "setting": "[1]", "result": 0.0033, "unit": "s⁻¹"}, {"measurement": "kon", "setting": "[1]", "result": 270000, "unit": "M⁻¹ s⁻¹"}, {"measurement": "koff", "setting": "[2]", "result": 0.003, "unit": "s⁻¹"}, {"measurement": "kon", "setting": "[2]", "result": 510000, "unit": "M⁻¹ s⁻¹"}]}]}
